T1: recombinant murine caspase-1 (mouse, UniProt P29452 119-402, limits assumed)
T1 sequence (looked up): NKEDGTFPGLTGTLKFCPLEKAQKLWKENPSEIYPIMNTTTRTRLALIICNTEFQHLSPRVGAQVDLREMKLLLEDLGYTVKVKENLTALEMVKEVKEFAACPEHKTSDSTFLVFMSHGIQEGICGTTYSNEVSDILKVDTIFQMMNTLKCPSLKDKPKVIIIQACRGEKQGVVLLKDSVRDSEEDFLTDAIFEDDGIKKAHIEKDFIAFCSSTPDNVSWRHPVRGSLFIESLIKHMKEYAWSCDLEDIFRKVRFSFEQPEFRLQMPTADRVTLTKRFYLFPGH

T2: 697-neo HM (spontaneous activity) caspase (human, UniProt P42574 14-175, limits assumed)
T2 sequence 1: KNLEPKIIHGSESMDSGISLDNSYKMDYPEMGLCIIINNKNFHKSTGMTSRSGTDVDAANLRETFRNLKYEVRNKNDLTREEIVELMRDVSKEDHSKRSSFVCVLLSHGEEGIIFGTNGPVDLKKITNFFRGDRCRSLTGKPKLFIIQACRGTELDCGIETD
T2 sequence 2: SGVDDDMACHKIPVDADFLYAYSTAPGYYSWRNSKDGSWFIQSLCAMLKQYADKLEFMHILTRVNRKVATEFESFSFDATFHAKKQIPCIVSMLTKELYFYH

T3: 697-neo HM (caspase-1 treated) caspase (human, UniProt P42574 14-175; P42574 176-277, limits assumed)
T3 chain 1: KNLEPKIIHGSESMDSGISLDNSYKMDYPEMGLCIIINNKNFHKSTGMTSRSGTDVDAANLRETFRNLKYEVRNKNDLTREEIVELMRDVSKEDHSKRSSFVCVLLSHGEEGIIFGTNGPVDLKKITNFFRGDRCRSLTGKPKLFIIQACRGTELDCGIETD
T3 chain 2: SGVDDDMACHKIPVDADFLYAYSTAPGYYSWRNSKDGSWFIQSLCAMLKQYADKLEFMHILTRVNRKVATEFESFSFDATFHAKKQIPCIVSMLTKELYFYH

T4: 697 Bcl-2 HM (caspase-1 treated) caspase (human, UniProt P42574 14-175; P42574 176-277, limits assumed)
T4 chain 1: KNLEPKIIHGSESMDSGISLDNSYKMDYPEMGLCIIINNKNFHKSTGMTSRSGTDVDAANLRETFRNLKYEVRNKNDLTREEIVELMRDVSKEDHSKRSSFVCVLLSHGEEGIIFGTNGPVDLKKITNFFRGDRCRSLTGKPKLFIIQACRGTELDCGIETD
T4 chain 2: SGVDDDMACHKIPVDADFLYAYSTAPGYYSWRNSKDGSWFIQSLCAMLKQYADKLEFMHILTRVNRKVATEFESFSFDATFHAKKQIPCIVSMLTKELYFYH

B1: YVAD-ald (peptide)
peptide: YVAD
modifications: C-terminal aldehyde; N-terminal acetyl (printed as acYVAD-aldehyde in paragraph 147)

Legend:
Experiment in all cases: cell-based or functional assay
[1] = target: T1, recombinant murine caspase-1
[2] = target: T2, 697-neo HM (spontaneous activity) …
[3] = target: T3, 697-neo HM (caspase-1 treated) caspase
[4] = target: T4, 697 Bcl-2 HM (caspase-1 treated) caspase

Binder | IC50, inhibition of caspase-1 [1] [nM] | IC50, inhibition of DEVD-amc cleavage [2] [nM] | IC50, inhibition of DEVD-amc cleavage [3] [nM] | IC50, inhibition of DEVD-amc cleavage [4] [nM]
B1 | 1 |  |  | 
DEVD (C-terminal aldehyde) [DEVD-ald] |  | 2.3 | 2.8 | 1.3
